Source: patent US20140235578A1, “METHODS FOR TREATING NEOPLASIA AND FOR IDENTIFYING COMPOSITIONS USEFUL IN SUCH THERAPY” (priority 2007, published 2014)

Experiments:
H9C2 cardiomyocytes [1] = assay: γ-H2AX DNA damage signal by Western blotting; format: cell-based
Procedure: Cell lysates were analyzed by Western blotting using anti-γ-H2AX or anti-α-tubulin antibody (for assessing protein loading). […] Cells were then lysed and analyzed by Western blotting using anti-γ-H2AX or anti-α-tubulin antibody. […] Cells were then lysed and analyzed by Western blotting using anti-γ-H2AX or anti-α-tubulin antibody.
(§1) Vitamin C and NAC were added 30 min prior to doxorubicin. Cell lysates were then analyzed by Western blotting using anti-γ-H2AX or anti-α-tubulin antibody. […] Cell lysates were then analyzed by Western blotting (upper panel) using anti-γ-H2AX or anti-α-tubulin antibody. Quantification of γ-H2AX signals is shown in the lower panel. C, H9C2 cells were treated with 0.1% DMSO (labeled DMSO), bortezomib (1 μM) or MG132 (4 μM) for 30 min, followed by co-treatment with either 0.1% DMSO (labeled control) or 0.5 μM doxorubicin (labeled Doxo) for 1.5 hrs. Neutral comet assay was then performed as described in Materials and Methods. The average comet tail moments were plotted as histograms (mean±SEM). *p-value<0.001, t-test.

H9C2 cardiomyocytes [2] = format: cell-based
Procedure: as §1
The amount of Top2 cleavage complexes was measured by a band depletion assay as described in Materials and Methods. Cells were lysed either immediately or after reversal of the Top2 cleavage complexes (labeled R+250). Cell lysates were analyzed by Western blotting using anti-Top2α/Top2β or anti-α-tubulin antibody. […] Cells were then lysed and protein levels of Top2α, and Top2β isozymes were determined by Western blotting. […] Cell lysates were immunoblotted using anti-Top2β antibody. D, H9C2 cells were treated with ICRF187 (100 μM) for 4 hrs, followed by treatment with doxorubicin (Doxo, 0, 0.5 and 1 μM) for 1.5 hrs. […]

Structure (SMILES): C[C@@H](CN1CC(=O)NC(=O)C1)N1CC(=O)NC(=O)C1 [dexrazoxane]
- effect on doxorubicin-induced γ-H2AX signal (H9C2 cardiomyocytes [1]): completely blocked
- effect on doxorubicin-induced comet tail moment (H9C2 cardiomyocytes [2]): effectively reduced
